Test results published in PubChem BioAssay AID485360 (National Center for Advancing Translational Sciences (NCATS), 2010).
About 1,500 (0.65%) of roughly 230,000 compounds were called active. All entries are inconclusive by the source's own rule. Clear calls are listed elsewhere. Calls come from the whole dose curve; as a rule, active = well fitted inhibition curve with a large enough effect; inconclusive = small, poorly fitted or top-dose-only effect; inactive = no such curve, though single readings can be large or run the other way.

Sequences of proteins named here, by UniProt entry; tags and fusion partners are left off. A change or cut given only in a name is not applied to a line headed by its entry.
UniProt Q9Y468: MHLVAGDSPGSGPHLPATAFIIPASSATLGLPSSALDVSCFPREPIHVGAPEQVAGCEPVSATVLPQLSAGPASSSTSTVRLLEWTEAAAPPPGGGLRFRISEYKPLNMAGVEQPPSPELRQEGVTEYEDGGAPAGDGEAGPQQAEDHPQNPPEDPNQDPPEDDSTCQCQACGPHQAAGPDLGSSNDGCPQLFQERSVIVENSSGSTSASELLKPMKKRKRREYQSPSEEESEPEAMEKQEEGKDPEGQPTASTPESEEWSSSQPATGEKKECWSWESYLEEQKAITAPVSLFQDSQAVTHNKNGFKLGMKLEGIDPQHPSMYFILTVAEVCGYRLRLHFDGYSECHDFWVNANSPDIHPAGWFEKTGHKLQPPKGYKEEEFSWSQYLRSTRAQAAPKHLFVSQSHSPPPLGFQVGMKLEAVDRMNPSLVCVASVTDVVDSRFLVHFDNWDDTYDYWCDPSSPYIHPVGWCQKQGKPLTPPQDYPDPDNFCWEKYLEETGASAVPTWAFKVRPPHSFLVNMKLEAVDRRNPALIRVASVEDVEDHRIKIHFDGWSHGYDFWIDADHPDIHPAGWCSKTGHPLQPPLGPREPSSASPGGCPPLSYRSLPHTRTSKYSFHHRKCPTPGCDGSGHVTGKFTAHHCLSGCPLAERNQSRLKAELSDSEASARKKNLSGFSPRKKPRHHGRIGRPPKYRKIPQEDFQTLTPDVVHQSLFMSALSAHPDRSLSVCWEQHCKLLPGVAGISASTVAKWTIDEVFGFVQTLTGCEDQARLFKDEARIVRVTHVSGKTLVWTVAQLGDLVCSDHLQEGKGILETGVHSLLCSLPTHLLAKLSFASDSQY

target: Lethal(3)malignant brain tumor-like protein 1 (Homo sapiens) (UniProt Q9Y468); assay: qHTS Assay for the Inhibitors of L3MBTL1; conditions: AlphaScreen L3MBTL1–H3K9me1 peptide binding; note: nearly all actives have a fitted effect of over 60% in size
Potency is the fitted concentration of half-maximal effect.

Row | SMILES | Potency
1 | CC(C)C(=O)NC(Sc1ccccc1)C(Cl)(Cl)Cl (centres undefined) | inconclusive: 6.31 µM
2 | O=c1c2cc([N+](=O)[O-])ccc2[nH]c2c([N+](=O)[O-])cc([N+](=O)[O-])cc12 | inconclusive: 4.47 µM
3 | Cc1ccc(NP(=O)(Oc2ccccc2)Oc2ccccc2)nc1 | inconclusive: 3.16 µM
4 | Cc1ccc(NCCc2c([N+](=O)[O-])cc([N+](=O)[O-])cc2[N+](=O)[O-])cc1 | inconclusive: 25.1 µM
